Source: US12583939B2, “Bispecific antigen binding molecules that bind HER2, and methods of use thereof” (Regeneron Pharmaceuticals, Inc., priority 2020, dated 2026)

What was measured:
N87 xenograft = assay: HER2 IHC3+ N87 xenograft model, Campt1 ADCs (Example 20); assay type: in vivo, SCID mice; conditions: single dose: 10 mg/kg (3 mg/kg for BsAb2-Tubulysin 1A-LP)
JIMT1 xenograft = assay: HER2 IHC2+ JIMT1 xenograft model, three ADCs (Example 16); assay type: in vivo, SCID mice; conditions: for JIMT1 Xenograft Tumor Size Average: 3 × 10 mg on days 13, 20, 27
epG2 = assay: Surface binding, high content imaging; assay type: cell-based; conditions: 10 ug/mL antibody
BT474 = assay: Surface binding, high content imaging; assay type: cell-based; conditions: 10 ug/mL antibody
MDAMB469 = assay: Surface binding, high content imaging; assay type: cell-based; conditions: 10 ug/mL antibody
MCF7 = assay: Surface binding, high content imaging; assay type: cell-based; conditions: 10 ug/mL antibody
SKOV3 = assay: Surface binding, high content imaging; assay type: cell-based; conditions: 10 ug/mL antibody
[1] = tested on: Primary Prostate Epithelial cells; assay: Surface binding, high content imaging; assay type: cell-based; conditions: 10 ug/mL antibody
SKBR3 = assay: Surface binding, high content imaging; assay type: cell-based; conditions: 10 ug/mL antibody
JIMT1 = assay: Surface binding, high content imaging; assay type: cell-based; conditions: 10 ug/mL antibody
CaLu3 = assay: Surface binding, high content imaging; assay type: cell-based; conditions: 10 ug/mL antibody
ZR751 = assay: Surface binding, high content imaging; assay type: cell-based; conditions: 10 ug/mL antibody
Primary Myocardial cells = assay: Surface binding, high content imaging; assay type: cell-based; conditions: Myocardium; 10 ug/mL antibody
[2] = tested on: Primary Lung Epithelial cells; assay: Surface binding, high content imaging; assay type: cell-based; conditions: 10 ug/mL antibody
N87 = assay: Surface binding, high content imaging; assay type: cell-based; conditions: 10 ug/mL antibody
MDAMB361 = assay: Surface binding, high content imaging; assay type: cell-based; conditions: 10 ug/mL antibody
EBC1 = assay: Surface binding, high content imaging; assay type: cell-based; conditions: 10 ug/mL antibody
MDAMB231 = assay: Surface binding, high content imaging; assay type: cell-based; conditions: 10 ug/mL antibody
B1483 = assay: Surface binding, high content imaging; assay type: cell-based; conditions: 10 ug/mL antibody
MDAMB453 = assay: Surface binding, high content imaging; assay type: cell-based; conditions: 10 ug/mL antibody
[3] = tested on: Primary Mammary Epithelial cells; assay: Surface binding, high content imaging; assay type: cell-based; conditions: Breast; 10 ug/mL antibody
JIMT1 cells = assay: Cell surface binding, flow cytometry; assay type: cell-based
MDAMB361 cells = assay: Cell surface binding, flow cytometry; assay type: cell-based
ZR751 cells = assay: Cell surface binding, flow cytometry; assay type: cell-based

In the case of “CompAb1-GGFG-Dxd: comparator ADC of CompAb1 with GGFG-Dxd; probably the same as DS8201A [reference compound]”, the “anti-tumor response” value (N87 xenograft) is reported as “comparable”.
In the case of “CompAb1-L-Camptothecin: DS8201A, an anti-HER2 ADC comprising a DxD payload; parental antibody Herceptin”, the “anti-tumor effect” value (JIMT1 xenograft; 3 mg/kg Tubulysin 1A-LP ADCs (BsAb1: single dose), weekly 10 mg/kg Maytansinoid A and Camptothecin ADCs) is reported as “only a slow-down in tumor progression”, the “JIMT1 Xenograft Tumor Size Average” value (JIMT1 xenograft; day 7) is reported as 84 mm^3 and the “JIMT1 Xenograft Tumor Size Average” value (JIMT1 xenograft; day 13) is reported as 182 mm^3. For the same substance, the “JIMT1 Xenograft Tumor Size Average” value (JIMT1 xenograft; day 15) was 204 mm^3, the “JIMT1 Xenograft Tumor Size Average” value (JIMT1 xenograft; day 17) was 225 mm^3 and the “JIMT1 Xenograft Tumor Size Average” value (JIMT1 xenograft; day 20) was 225 mm^3. For the same substance, the “JIMT1 Xenograft Tumor Size Average” value (JIMT1 xenograft; day 23) was 224 mm^3, the “JIMT1 Xenograft Tumor Size Average” value (JIMT1 xenograft; day 27) was 184 mm^3 and the “JIMT1 Xenograft Tumor Size Average” value (JIMT1 xenograft; day 29) was 227 mm^3. The “JIMT1 Xenograft Tumor Size Average” value (JIMT1 xenograft; day 31) was 219 mm^3, the “JIMT1 Xenograft Tumor Size Average” value (JIMT1 xenograft; day 34) was 249 mm^3 and the “JIMT1 Xenograft Tumor Size Average” value (JIMT1 xenograft; day 36) was 281 mm^3. The “JIMT1 Xenograft Tumor Size Average” value (JIMT1 xenograft; day 38) was 315 mm^3, the “JIMT1 Xenograft Tumor Size Average” value (JIMT1 xenograft; day 41) was 345 mm^3 and the “JIMT1 Xenograft Tumor Size Average” value (JIMT1 xenograft; day 44) was 374 mm^3. The “JIMT1 Xenograft Tumor Size Average” value (JIMT1 xenograft; day 48) was 446 mm^3, the “JIMT1 Xenograft Tumor Size Average” value (JIMT1 xenograft; day 50) was 500 mm^3 and the “JIMT1 Xenograft Tumor Size Average” value (JIMT1 xenograft; day 53) was 557 mm^3. The “JIMT1 Xenograft Tumor Size Average” value (JIMT1 xenograft; day 57) was 727 mm^3, the “JIMT1 Xenograft Tumor Size Average” value (JIMT1 xenograft; day 65) was 963 mm^3 and the “JIMT1 Xenograft Tumor Size Average” value (JIMT1 xenograft; day 69) was 1161 mm^3. It also gave an average xenograft size (JIMT1 xenograft; three weekly doses of 10 mg/kg, by day 44) of 374 mm^3.
With “CompAb1: parental anti-HER2 antibody, Herceptin [reference compound]” the MFI (epG2) was 0.4002 A.U, the MFI (BT474) was 1.736 A.U and the MFI (MDAMB469) was 0.1304 A.U. For the same substance, the MFI (MCF7) was 0.2831 A.U, the MFI (SKOV3) was 1.603 A.U and the MFI [1] was 0.2042 A.U. For the same substance, the MFI (SKBR3) was 1.938 A.U, the MFI (JIMT1) was 0.6212 A.U and the MFI (CaLu3) was 1.53 A.U. It also gave an MFI (ZR751) of 0.6014 A.U, an MFI (Primary Myocardial cells) of 0.09543 A.U and an MFI [2] of 0.3032 A.U. For the same substance, the MFI (N87) was 1.8087 A.U, the MFI (MDAMB361) was 1.522 A.U and the MFI (EBC1) was 0.2684 A.U. For the same substance, the MFI (MDAMB231) was 0.1798 A.U, the MFI (B1483) was 0.4949 A.U and the MFI (MDAMB453) was 0.8035 A.U. The MFI [3] was 0.2415 A.U, the MFI (JIMT1 cells; [Ab] 0.04 ug/ml) was 276 A.U and the MFI (JIMT1 cells; [Ab] 0.08 ug/ml) was 481 A.U. The MFI (JIMT1 cells; [Ab] 0.31 ug/ml) was 1377 A.U, the MFI (JIMT1 cells; [Ab] 0.63 ug/ml) was 2396 A.U and the MFI (JIMT1 cells; [Ab] 1.25 ug/ml) was 3778 A.U. The MFI (JIMT1 cells; [Ab] 2.5 ug/ml) was 5713 A.U, the MFI (JIMT1 cells; [Ab] 5 ug/ml) was 7995 A.U and the MFI (JIMT1 cells; [Ab] 10 ug/ml) was 10320 A.U. It also gave an MFI (JIMT1 cells; [Ab] 20 ug/ml) of 11378 A.U, an MFI (JIMT1 cells; [Ab] 40 ug/ml) of 11349 A.U and an MFI (MDAMB361 cells; [Ab] 0.04 ug/ml) of 304 A.U. The MFI (MDAMB361 cells; [Ab] 0.08 ug/ml) was 465 A.U, the MFI (MDAMB361 cells; [Ab] 0.31 ug/ml) was 1259 A.U and the MFI (MDAMB361 cells; [Ab] 0.63 ug/ml) was 2097 A.U. For the same substance, the MFI (MDAMB361 cells; [Ab] 1.25 ug/ml) was 3780 A.U, the MFI (MDAMB361 cells; [Ab] 2.5 ug/ml) was 6183 A.U and the MFI (MDAMB361 cells; [Ab] 5 ug/ml) was 8988 A.U. It also gave an MFI (MDAMB361 cells; [Ab] 10 ug/ml) of 12003 A.U, an MFI (MDAMB361 cells; [Ab] 20 ug/ml) of 13863 A.U and an MFI (MDAMB361 cells; [Ab] 40 ug/ml) of 14675 A.U. For the same substance, the MFI (ZR751 cells; [Ab] 0.04 ug/ml) was 435 A.U, the MFI (ZR751 cells; [Ab] 0.08 ug/ml) was 648 A.U and the MFI (ZR751 cells; [Ab] 0.31 ug/ml) was 1850 A.U. For the same substance, the MFI (ZR751 cells; [Ab] 0.63 ug/ml) was 3283 A.U, the MFI (ZR751 cells; [Ab] 1.25 ug/ml) was 5369 A.U and the MFI (ZR751 cells; [Ab] 2.5 ug/ml) was 7901 A.U. For the same substance, the MFI (ZR751 cells; [Ab] 5 ug/ml) was 9983 A.U, the MFI (ZR751 cells; [Ab] 10 ug/ml) was 11078 A.U and the MFI (ZR751 cells; [Ab] 20 ug/ml) was 11793 A.U. For the same substance, the MFI (ZR751 cells; [Ab] 40 ug/ml) was 11749 A.U.
